{
  "source": "PubChem BioAssay AID652126",
  "about": "(The Scripps Research Institute Molecular Screening Center, 2013)",
  "note": "Only a part is listed here, and it is no random draw. Some salts and complexes are drawn in separate pieces, as the source files them; their charges need not balance. The source made the active and inactive calls.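 The calls were made as follows: active = activation above the mean over all tested compounds plus 3 SD (cut at about 0.9% in these data); inactive = the rest.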",
  "data": [
    {"system": "Nuclear hormone receptor DAF-12 (Strongyloides stercoralis)", "test": "ssDAF-12 driven luciferase reporter activation – cell-based, luminescence, HEK293, GRIP1 co-expression, lit1-tk-luc, primary screen (AID 652126);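 also: 0% = DMSO-only wells and 100% = 3 µM delta7-dafachronic acid wells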", "conditions": "HEK293 ssDAF-12/GRIP1 lit1-tk-luc reporter, at 6.8 µM, active compounds read high, % of 3 µM dafachronic acid response", "values": [
      {"smiles": "CP(=O)(OC12CC3CC(CC(C3)C1)C2)OC12CC3CC(CC(C3)C1)C2", "activation": "inactive: -1.43%"},
      {"smiles": "CCOC(=O)c1ccc(NP(C)(=O)Oc2ccc(Cl)cc2)cc1", "note": "(configuration not stated)", "activation": "inactive: -1.36%"},
      {"smiles": "Nc1ccc2c(ccc3cccnc32)n1.O=[N+]([O-])c1cc([N+](=O)[O-])c(O)c([N+](=O)[O-])c1", "activation": "inactive: -1.65%"},
      {"smiles": "CP(=O)(Oc1ccccc1)N1CCOC1=O", "note": "(configuration not stated)", "activation": "inactive: -1.31%"},
      {"smiles": "CCc1ccc(OP(C)(=O)Nc2cccnc2)cc1", "note": "(configuration not stated)", "activation": "inactive: -1.39%"},
      {"smiles": "COc1ccccc1OP(C)(=O)Nc1c(C)n(C)n(-c2ccccc2)c1=O", "note": "(configuration not stated)", "activation": "inactive: -0.8%"},
      {"smiles": "O=C(OCCCN1CCCC1)C(O)(c1ccccc1)C1CCCCC1", "note": "(configuration not stated)", "activation": "inactive: -1.07%"},
      {"smiles": "CCN(CC)CC(O)COC(=O)C(O)(c1ccccc1)C1CCCCC1", "note": "(configuration not stated)", "activation": "inactive: -0.29%"},
      {"smiles": "COc1ccc(OP(C)(=O)Nc2ccc(Br)cc2)cc1", "note": "(configuration not stated)", "activation": "inactive: -0.9%"},
      {"smiles": "CN(C)C(=O)c1c([N+](=O)[O-])cc([N+](=O)[O-])cc1[N+](=O)[O-]", "activation": "inactive: -1.81%"},
      {"smiles": "CP(=O)(Nc1ccc(Cl)cc1)Oc1ccc(F)cc1", "note": "(configuration not stated)", "activation": "inactive: -1.39%"},
      {"smiles": "COc1ccccc1OP(C)(=O)Nc1ccccc1Br", "note": "(configuration not stated)", "activation": "inactive: -2.21%"},
      {"smiles": "CC(C)(C)c1ccc(OP(C)(=O)O)cc1", "activation": "inactive: -1.08%"},
      {"smiles": "CN(C)CCOC(=O)C(O)(c1ccccc1)C1CCCC1", "note": "(configuration not stated)", "activation": "inactive: -1.71%"},
      {"smiles": "COc1ccc(OP(C)(=O)Nc2ccccn2)cc1", "note": "(configuration not stated)", "activation": "inactive: -1.01%"},
      {"smiles": "COc1ccccc1OP(C)(=O)Nc1ccc(Br)cc1", "note": "(configuration not stated)", "activation": "inactive: -1.24%"},
      {"smiles": "CCc1ccc(OP(C)(=O)O)cc1", "activation": "inactive: -1.36%"},
      {"smiles": "CP(=O)(Nc1ccccn1)Oc1ccccc1", "note": "(configuration not stated)", "activation": "inactive: -1.11%"},
      {"smiles": "COc1ccccc1OP(C)(=O)Nc1ccc(C)cc1C", "note": "(configuration not stated)", "activation": "inactive: -1.19%"},
      {"smiles": "Cc1c(NP(C)(=O)Oc2ccc(C(C)C)cc2)c(=O)n(-c2ccccc2)n1C", "note": "(configuration not stated)", "activation": "inactive: -1.42%"},
      {"smiles": "O=[N+]([O-])c1cc([N+](=O)[O-])c(Nc2ccccn2)c([N+](=O)[O-])c1", "activation": "inactive: -1.72%"},
      {"smiles": "COc1ccc(OP(C)(=O)Nc2ccccc2Br)cc1", "note": "(configuration not stated)", "activation": "inactive: -1.27%"},
      {"smiles": "COc1ccccc1OP(C)(=O)Nc1ccc(C)c(C)c1", "note": "(configuration not stated)", "activation": "inactive: -1.12%"},
      {"smiles": "O=C1C(O)=C([N+](=O)[O-])C(=O)C(O)=C1[N+](=O)[O-]", "activation": "inactive: -0.84%"},
      {"smiles": "Cc1cc(C)cc(OP(C)(=O)Nc2cccc(C(F)(F)F)c2)c1", "note": "(configuration not stated)", "activation": "inactive: -1.38%"},
      {"smiles": "CCCCCCCCCCCCCCCC1C[N+](C)(C)CCOP(C)(=O)O1", "note": "(configuration not stated)", "activation": "inactive: -1.05%"},
      {"smiles": "CP(=O)(Nc1ccc(Cl)cc1Cl)Oc1ccccc1", "note": "(configuration not stated)", "activation": "inactive: -1.31%"},
      {"smiles": "CP(=O)(OCCOc1ccccc1)OCCOc1ccccc1", "activation": "inactive: -1.06%"},
      {"smiles": "COc1ccc(OP(C)(=O)Nc2ccc(SC(F)(F)F)cc2)cc1", "note": "(configuration not stated)", "activation": "inactive: -1.86%"},
      {"smiles": "CCOC(=O)c1ccc(NP(C)(=O)Oc2ccc(F)cc2)cc1", "note": "(configuration not stated)", "activation": "inactive: -1.38%"},
      {"smiles": "CCN(CC)CCCNc1ccccc1[N+](=O)[O-].O=[N+]([O-])c1cc([N+](=O)[O-])c(O)c([N+](=O)[O-])c1", "activation": "inactive: -0.24%"},
      {"smiles": "CCCCCOc1ccc(NP(C)(=O)Oc2ccc(Cl)cc2Cl)cc1", "note": "(configuration not stated)", "activation": "inactive: -0.7%"},
      {"smiles": "O=[N+]([O-])c1cc([N+](=O)[O-])c(OC2CCCCC2O)c([N+](=O)[O-])c1", "note": "(configuration not stated)", "activation": "inactive: -1.22%"},
      {"smiles": "CP(=O)(Nc1ccccc1)Oc1ccc(F)cc1", "note": "(configuration not stated)", "activation": "inactive: -1.8%"},
      {"smiles": "CCN(CC)CCCOC(=O)C(O)(c1ccccc1)C1CCCCC1", "note": "(configuration not stated)", "activation": "inactive: -1.31%"},
      {"smiles": "Cc1c([N+](=O)[O-])cc([N+](=O)[O-])c(Br)c1[N+](=O)[O-]", "activation": "inactive: -0.21%"},
      {"smiles": "CC(C)c1ccc(OP(C)(=O)Nc2ccc(SC(F)(F)F)cc2)cc1", "note": "(configuration not stated)", "activation": "inactive: -1.46%"},
      {"smiles": "CP(=O)(Nc1ccccc1F)Oc1ccccc1", "note": "(configuration not stated)", "activation": "inactive: -1.56%"},
      {"smiles": "O=[N+]([O-])c1cc([N+](=O)[O-])c(Nc2ccc(Cl)cc2)c([N+](=O)[O-])c1", "activation": "inactive: -1.47%"},
      {"smiles": "COc1ccc2c(c1O)-c1c(O)c(OC)cc3c1[C@H](C2)[N+](C)(C)CC3.O=[N+]([O-])c1cc([N+](=O)[O-])c([O-])c([N+](=O)[O-])c1[O-]", "activation": "inactive: -1.22%"},
      {"smiles": "O=C(OCCN1CCN(CCOCc2ccccc2)CC1)C(O)(c1ccccc1)c1ccccc1", "activation": "inactive: -1.88%"},
      {"smiles": "O=C(OC1CN2CCC1CC2)c1ccc([N+](=O)[O-])cc1", "note": "(configuration not stated)", "activation": "inactive: -0.8%"},
      {"smiles": "CCOP(=O)(CC)OCC", "activation": "inactive: -1.15%"},
      {"smiles": "CCOP(C)(=S)SCC(=O)NC(C)(CC)C(=O)O", "note": "(configuration not stated)", "activation": "inactive: -1.1%"},
      {"smiles": "CP(=O)(Nc1ccc(SC(F)(F)F)cc1)Oc1ccc(F)cc1", "note": "(configuration not stated)", "activation": "inactive: -1.6%"},
      {"smiles": "O=[N+]([O-])c1cc([N+](=O)[O-])c(C(F)(F)F)c([N+](=O)[O-])c1O", "activation": "inactive: -0.82%"},
      {"smiles": "Cc1ccccc1NP(C)(=O)Nc1ccccc1C", "activation": "inactive: -0.9%"},
      {"smiles": "CP(=O)(Nc1ccc2c(c1)OCCO2)Oc1ccccc1", "note": "(configuration not stated)", "activation": "inactive: -1.73%"},
      {"smiles": "COc1ccc(NP(C)(=O)Oc2ccccc2OC)cc1", "note": "(configuration not stated)", "activation": "inactive: -1.16%"},
      {"smiles": "CN(C)CCOC(=O)C(O)(c1ccccc1)C1CCCCC1", "note": "(configuration not stated)", "activation": "inactive: -0.91%"},
      {"smiles": "COc1ccc(OP(C)(=O)Nc2cccc(Br)c2)cc1", "note": "(configuration not stated)", "activation": "inactive: -0.86%"},
      {"smiles": "Cc1c(C(c2ccc3c(c2)OCO3)c2c(C)n(C)n(-c3ccccc3)c2=O)c(=O)n(-c2ccccc2)n1C.O=[N+]([O-])c1cc([N+](=O)[O-])c(O)c([N+](=O)[O-])c1", "activation": "inactive: -1.86%"},
      {"smiles": "Cc1cc(-c2cccc3ccccc23)c(C)cn1.O=[N+]([O-])c1cc([N+](=O)[O-])c(O)c([N+](=O)[O-])c1", "activation": "inactive: -1.19%"},
      {"smiles": "O=[N+]([O-])c1cc([N+](=O)[O-])c(NCC2CCS(=O)(=O)C2)c([N+](=O)[O-])c1", "note": "(configuration not stated)", "activation": "inactive: -1.13%"},
      {"smiles": "O=[N+]([O-])c1ccc(OP2(=O)COCCO2)cc1", "note": "(configuration not stated)", "activation": "inactive: -1.37%"},
      {"smiles": "O=[N+]([O-])c1cc([N+](=O)[O-])c(Nc2nnnn2CCO)c([N+](=O)[O-])c1", "activation": "inactive: -1.05%"},
      {"smiles": "CCOC(=O)C(CC)C1=NC(C)(C)Cc2ccccc21.O=[N+]([O-])c1cc([N+](=O)[O-])c(O)c([N+](=O)[O-])c1", "note": "(configuration not stated)", "activation": "inactive: -1.08%"}
    ]}
  ]
}
